Measurements reported in US9434697B2, “Pyrimidine FGFR4 inhibitors” (priority 2013, dated 2016).

Experiments:
Parameters in all cases: species or system nude mice
JHH7 tumor xenografts = test: In vivo efficacy, JHH7 hepatocellular carcinoma xenograft; conditions: JHH7, among the three models
HEP3B tumor xenografts = test: In vivo efficacy, HEP3B hepatocellular carcinoma xenograft; conditions: among the three models
HUH7 tumor xenografts = test: In vivo efficacy, HUH7 hepatocellular carcinoma xenograft; conditions: HUH7, among the three models

For `C=CC(=O)Nc1cc(N2CCN(CC)CC2)ccc1Nc1cc(N(C)C(=O)Nc2c(Cl)c(OC)cc(OC)c2Cl)ncn1` [Example 108, N-(2-(6-(3-(2,6-Dichloro-3,5-dimethoxyphenyl)-1-methylureido)pyrimidin-4-ylamino)-5-(4-ethylpiperazin-1-yl)phenyl)acrylamide], the “sensitivity of the xenograft model to the compound” value (“sensitivity of the xenograft model” below) (JHH7 tumor xenografts) was “least sensitive”, the “sensitivity of the xenograft model” value (HEP3B tumor xenografts) was “most sensitive” and the “sensitivity of the xenograft model” value (HUH7 tumor xenografts) was “intermediate sensitivity”.
